One test concerns the target T1, MLL3_(ePHD6)1055–1144 (Homo sapiens, UniProt Q8NEZ4).
T1 construct: MLL3_ePHD6, residues 1055–1144 and residues 1075–1144; GST (N, cleaved yes); His (N, cleaved yes); made in house; host or cells: E. coli BL21 (DE3) Codon plus RIL
Description: ITC binding of histone peptides to MLL3 ePHD6 (1055–1144). On the set-up: key: NB: no detectable binding. Particulars: 20 mM Tris pH 7.5, 150 mM NaCl, 25 °C, protein 50–100 μM in cell, peptide 1–2 mM in syringe, single measurement, error from fitting curve. An excerpt:
(§1) The DNA fragments of MLL3 and MLL4 PHD domains (MLL3_ePHD6, residues 1055–1144 and residues 1075–1144; MLL3_PHD6, residues 1085–1144; MLL3_PHD5, residues 1009–1055; MLL3_PHD5-6, residues 1008–1144; MLL3_ePHD3, residues 436–525; MLL4_ePHD6, residues 1475–1564, and residues 1495–1564; MLL4_PHD6 residues 1505–1564 and MLL4_PHD5 residues 1429–1475) were subcloned into a modified pET28GST-LIC vector by T4 ligase-independent method (Clontech, 638920) to generate N-terminal GST, His-tagged fusion protein. The recombinant protein was overexpressed in E coli BL21 (DE3) Codon plus RIL (Stratagene) at 15 °C by induction with 0.25 mM IPTG at an OD600 of 0.8 and purified by affinity chromatography on Ni-nitrilotriacetate resin (Qiagen, 30250) followed by thrombin protease treatment to remove the tag. The protein was further purified by HiTrap Q HP column (GE Healthcare, 17115401) by using buffers with 20 mM Tris, pH 8.0, 1 mM DTT, 50 mM NaCl (low salt buffer) or 1 M NaCl (high salt buffer), and Superdex75 gel-filtration column (GE Healthcare, 28989333) by using a buffer containing 20 mM Tris, pH 7.5, 150 mM NaCl, 50 μM ZnCl2, and 1 mM DTT. For crystallization experiments, purified protein was concentrated to 5 mg mL^−1 in the same buffer as gel-filtration by using Amicon Ultra-15 Centrifugal Filter Units (Millipore Corporation, UFC901024). […]

Chains of the proteins cited; added tags and fusions are not shown. Residues count along the entry.
UniProt Q8NEZ4, 1055-1144: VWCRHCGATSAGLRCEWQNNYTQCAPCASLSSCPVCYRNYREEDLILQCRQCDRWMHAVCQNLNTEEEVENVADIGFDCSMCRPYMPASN
UniProt O14686, 1475-1564: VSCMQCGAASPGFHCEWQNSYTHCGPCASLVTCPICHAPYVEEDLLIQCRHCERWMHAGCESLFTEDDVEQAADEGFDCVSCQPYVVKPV

The target of the next test is T2, MLL4_(ePHD6)1475–1564 (Homo sapiens, UniProt O14686).
T2 construct: MLL4_ePHD6, residues 1475–1564, and residues 1495–1564; GST (N, cleaved yes); His (N, cleaved yes); made in house; host or cells: E. coli BL21 (DE3) Codon plus RIL
Kind of test: ITC binding of histone peptides to MLL4 ePHD6 (1475–1564). On the set-up: key: NB: no detectable binding. Particulars: 20 mM Tris pH 7.5, 150 mM NaCl, 25 °C, protein 50–100 μM in cell, peptide 1–2 mM in syringe, single measurement, error from fitting curve.
Source text: as §1

Turning to H3_1–15K4me2: histone H3 peptide K4me2, the Kd result with MLL3_(ePHD6)1055–1144 and with MLL4_(ePHD6)1475–1564 was “NB” each time.

On to H3_1–15K4me3: histone H3 peptide K4me3, for which the Kd result in the test with MLL3_(ePHD6)1055–1144 and with MLL4_(ePHD6)1475–1564 was “NB” in each case.
